Measured values reported in patent US20180036445A1.

Key:
[1] = target: Fab (sample of Example 4); test: static binding capacity in filter plate, after 24 h in 0.6% formic acid, 3% H2O2, 90 min incubation with Fab, relative to PBS control
[2] = target: Fab (sample of Example 4); test: static binding capacity in filter plate, after 24 h in 100 mM peracetic acid, 90 min incubation with Fab, relative to PBS control
[3] = target: Fab (sample of Example 4); test: static binding capacity in filter plate, after 4 h in 5% H2O2, 10 min incubation with Fab, relative to PBS control
[4] = target: Fab (sample of Example 4); test: static binding capacity in filter plate, after 24 h in 5% H2O2, 90 min incubation with Fab, relative to PBS control
[5] = target: Fab (sample of Example 4); test: static binding capacity in filter plate, after 4 h in 0.6% formic acid, 3% H2O2, 10 min incubation with Fab, relative to PBS control
[6] = target: Fab (sample of Example 4); test: static binding capacity in filter plate, after 4 h in 0.6% formic acid, 3% H2O2, 90 min incubation with Fab, relative to PBS control
[7] = target: Fab (sample of Example 4); test: static binding capacity in filter plate, after 24 h in 0.6% formic acid, 3% H2O2, 10 min incubation with Fab, relative to PBS control
[8] = target: Fab (sample of Example 4); test: static binding capacity in filter plate, after 4 h in 500 mM peracetic acid, 10 min incubation with Fab, relative to PBS control

Relative remaining SBC (%) [1]: 106%
Relative remaining SBC (%) [2]: 105%
Relative remaining SBC (%) [3]: 104%
Relative remaining SBC (%) [4]: 105%
Relative remaining SBC (%) [5]: 108%
Relative remaining SBC (%) [6]: 105%
Relative remaining SBC (%) [7]: 104%
Relative remaining SBC (%) [8]: 106%
B1: recombinant Protein L (rPrL) (protein)
chain: AVENKEETPETPETDSEEEVTIKANLIFANGSTQTAEFKGTFEKATSEAYAYADTLKKDNGEYTVDVADKGYTLNIKFAGKEKTPEEPKEEVTIKANLIYADGKTQTAEFKGTFEEATAEAYRYADALKKDNGEYTVDVADKGYTLNIKFAGKEKTPEEPKEEVTIKANLIYADGKTQTAEFKGTFEEATAEAYRYADLLAKENGKYTVDVADKGYTLNIKFAGKEKTPEEPKEEVTIKANLIYADGKTQTAEFKGTFAEATAEAYRYADLLAKENGKYTADLEDGGYTINIRFAGKKVDEKPEE
